For this data set the following is noted: 70 min. The method, then: 098 g of hydroxyethyl-β-CD in which, of 21 hydroxyl groups contained in one β -CD molecule, an average of 1.6 groups are substituted through an ether bond with a hydroxyethyl group (hereinafter referred to as HE-β-CD) or 0.090 g of hydroxypropyl-β-CD in which, of 21 hydroxyl groups contained in one β -CD molecule, an average of 0.9 groups are substituted through an ether bond with a hydroxypropyl group (hereinafter referred to as HP-β -CD), and the volume of each solution was adjusted to 10 ml to prepare aqueous CD solutions of a concentration of 6 mM.
To the solutions were added 2 mg each of taxol, and the resulting mixtures were stirred at room temperature (20 to 25°C) at 5,000 r.p.m. As a control, 2 mg of taxol were added to 10 ml of water, and the resulting mixture was stirred at room temperature (20 to 25°C) at 5,000 r.p.m. […] 45µm, and the concentration of taxol contained in the filtrates was determined by highperformance liquid chromatography (HPLC).
Then, 20 mg of taxol were added to the aqueous DM-β-CD solution, 2 mgof taxol to the aqueous HP-β-CD solution, and 1 mg each of taxol to the other aqueous CD solutions, and the resulting mixtures were stirred at room temperature (20 to 25°C) at 5,000 r.p.m. […] After 70 minutes of stirring, the solutions were passed through a filter with a pore diameter of 0.45µm, and the concentration of taxol contained in the filtrates was determined.

On to 6-mono-O-maltosyl- γ -CD [G2-γ-CD], for which the “Solubility of Taxol” value stood at 0.4 µ g/ml and the “Solubilty of Taxol” value was determined as 1.5 µ g/ml.
